# Apparent affinities of Ab-14 variants for a coronavirus HR2 peptide

Values reported by Li et al. 2023, doi:10.1038/s41467-023-39022-2 (FLAb copy).

Antigen: PDVDLGDISGINAS, a 14-residue peptide of the SARS-CoV-2 spike HR2 region.

Parent: Ab-14, a human scFv built as VH, three GGGGS repeats, VL. Only the CDRs of the light chain vary.
VH: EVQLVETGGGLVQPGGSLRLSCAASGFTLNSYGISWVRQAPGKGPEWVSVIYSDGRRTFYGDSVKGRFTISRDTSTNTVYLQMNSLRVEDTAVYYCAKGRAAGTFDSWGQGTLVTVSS
VL: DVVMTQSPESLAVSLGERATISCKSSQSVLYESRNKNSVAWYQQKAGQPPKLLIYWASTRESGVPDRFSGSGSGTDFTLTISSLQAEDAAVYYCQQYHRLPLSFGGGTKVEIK

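The parent was found by panning a naive human phage display library on the peptide. These sequences belong to a second round, designed from the earlier measurements on random variants of the parent. Their group label is 14L_Ctrl (Ctrl: baseline library sampled from a position-specific scoring matrix, with some repeated check sequences). Affinity was read by AlphaSeq, a pooled yeast mating assay with surface-displayed partners. Pairs that bind mate more often; barcode pairs of the diploids are counted by sequencing. Each replicate has its own calibration line, from reference interactions of the BCL2 family. There are six technical replicates.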

Variants are written as CDR1, CDR2 and CDR3 of the light chain (limits as in the source). Parent: KSSQSVLYESRNKNSVA, WASTRES, QQYHRLPLS.
Affinities are written as log10 Kd with Kd in nM; a lower number is a better binder.
The mean shown is taken over the replicates in which the pair was detected.
An entry "ND" has no value in the source: the pair was not observed among the diploids in that replicate. This suggests poor binding but is not conclusive.
Empty control strains, which show no peptide, gave a signal in 4% of pairings with all light chain designs; the median was 2.64 and 95% of these signals were weaker than 1.59. No background was subtracted. For each scFv, signals with the empty controls are counted beside the result, with their mean in brackets.
The authors averaged sequences with at least three values out of six and counted those with two or fewer as poor binders.
A sequence measured in both rounds can read differently, since the two assays cover different ranges.
Of ten entries with the parent sequence, four were seen in most replicates (averages 0.34 to 2.37), three in one and three in none, so single entries are noisy.

| CDR-L1 | CDR-L2 | CDR-L3 | log10 Kd (nM) by replicate | mean log10 Kd (nM) | signal with controls |
|---|---|---|---|---|---|
| KFSQSVQYESTNKNSVA | RASTRET | QQYHRLPLS | 0.18 / 0.15 / 0.17 / 0.17 / 0.10 / 0.29 | 0.18 | 0/18 |
| KVSPSVLYESLNKNSVA | QASTREK | QQIHRHPLS | 0.38 / 0.85 / -0.04 / 0.01 / -0.18 / 0.13 | 0.19 | 1/18 (1.35) |
| KLSISVLYESSNSNSVA | WASTRES | QQKHRLPLS | ND / ND / ND / ND / 2.38 / 2.90 | 2.64 | 0/18 |
| KSSQSVLYESRNKNSVA | AASTRES | QQYHTLPLS | 0.95 / 0.73 / 1.24 / 1.05 / 0.72 / 1.34 | 1.00 | 6/18 (2.86) |
| KVSQSVLPESENKNSVA | WASTRER | QQYHRLPLS | 1.16 / 1.31 / 0.96 / 2.08 / 0.87 / 1.87 | 1.38 | 1/18 (3.07) |
| KISQSALYESLNKNSVA | WASTRED | QQYHRLPLS | 0.89 / 1.04 / 0.63 / 0.99 / 0.67 / 0.93 | 0.86 | 3/18 (3.32) |
| KSSQSVLYPSRNKNSVA | HASTRES | QQYHRLPLS | 1.19 / 1.72 / 1.09 / 1.74 / 1.82 / 1.40 | 1.49 | 2/18 (2.14) |
| KSSQSVLSESRNKNSVA | AASTRES | QQYHRLPLS | 1.01 / 0.94 / 1.04 / 1.11 / 1.25 / 1.07 | 1.07 | 3/18 (2.90) |
| KISQSVLGESRNKNSVA | WASTRES | QQYHRLPLS | 0.76 / 0.51 / 0.52 / 0.50 / 0.61 / 0.60 | 0.59 | 1/18 (3.82) |
| KSSDSDLYESRNKNSVA | WASTRES | QQYHRLHLS | ND / ND / ND / ND / ND / ND | ND | 0/18 |
| KSSQSVLYESENKNSVA | QASTRES | QQYHRLPFS | 1.88 / 1.54 / 1.45 / 1.49 / 1.12 / 1.51 | 1.50 | 0/18 |
| KSSQSVMYESRLCNSVA | NAVTRES | QQYHRLPLS | ND / 0.61 / 1.07 / 1.19 / 1.81 / 1.48 | 1.23 | 0/18 |
| KSSPSVLYESRNKNSVA | AASTRIS | QQYHRLPLS | 0.03 / -0.11 / -0.02 / -0.46 / -0.32 / -0.14 | -0.17 | 0/18 |
| KISQSDLYDSRNKNSVA | DASTRES | QQYHRLPLS | -0.19 / -0.31 / -0.39 / -0.38 / -0.39 / -0.28 | -0.33 | 4/18 (2.53) |
| KSQNSSLYESNNKNSVA | WASTRES | QQYHILPLS | ND / ND / ND / ND / ND / ND | ND | 1/18 (1.53) |
| KSSQSVGYESRNKNSVA | GASTRES | QQYHRLHGS | ND / ND / ND / ND / ND / ND | ND | 0/18 |
| KLSQSVLMESRNKNNVA | WASTREE | QQYHRLPLS | -0.36 / -0.35 / -0.31 / -0.20 / -0.34 / -0.14 | -0.28 | 1/18 (4.27) |
| KSSQSCLYEYRNKNSVA | WASTRES | GQYHRLPLS | ND / ND / ND / ND / ND / ND | ND | 0/18 |
| KSSQSVLYESRNKNSVA | YASTRES | QQYHMLPLS | ND / 2.34 / 1.69 / 2.16 / 2.04 / 2.21 | 2.09 | 0/18 |
| KGSQSVLYESRNKNSVA | DASTRES | QQYHRLPLS | 0.47 / -0.15 / 0.20 / -0.19 / -0.18 / 0.39 | 0.09 | 0/18 |
| KSSQSVLYETRNKNSVA | AGSTRES | QQYHRLPLS | ND / ND / ND / ND / 2.31 / ND | 2.31 | 0/18 |
| KQSQSVLYESRNKNSVA | NASTRED | QQPHRLPLS | 0.48 / 0.97 / 0.46 / 0.53 / 0.85 / 0.42 | 0.62 | 0/18 |
| KSSQSVLYESRNANSVA | DASTRES | QQYHRLPLW | 0.60 / 0.41 / 0.23 / 0.34 / 0.31 / 0.66 | 0.42 | 4/18 (2.94) |
| KSSHSVLDESSNKNSVA | DASTRES | QQYHRLPLS | 0.40 / 0.39 / 0.13 / 0.06 / 0.30 / 0.47 | 0.29 | 1/18 (1.30) |
| KSGQSVLYESRNINSVA | WASTRES | QQYHRAPLS | ND / ND / ND / ND / ND / ND | ND | 0/18 |
| KISQSVLYARRNKNSVA | EASTRLS | QQYHNLPLS | ND / 1.55 / 1.09 / 2.39 / 1.50 / 1.48 | 1.60 | 1/18 (2.67) |
| KSSQSVLYESDNKNSVA | AASTRES | QQYHRHPLS | ND / ND / ND / ND / ND / 1.93 | 1.93 | 1/18 (1.24) |
| KISQSVLYESRNKNSVA | WASTRES | QQYQRSPLS | 1.36 / 0.92 / 1.21 / 0.92 / 0.87 / 2.31 | 1.27 | 2/18 (2.41) |
| VSSLSVLNESRNKNSVA | WASTRES | QQYHHLPLS | ND / ND / ND / ND / ND / ND | ND | 0/18 |
| KSSQSVLYESRNKNSVA | EASTREA | QQYHRLPLA | ND / ND / 1.73 / 3.76 / 3.15 / 2.54 | 2.79 | 0/18 |
| KQSMSVLYESRNKNSVA | WASTRES | QQYHRLPLS | 0.83 / 0.39 / 0.16 / 0.24 / 0.19 / 0.51 | 0.39 | 0/18 |
| KSSQSVLYESSNKVSVA | WASTRES | QQYHRLPLS | ND / ND / ND / ND / ND / 2.59 | 2.59 | 0/18 |
| KSSQSHLYESRNKNSVA | WASTRED | QQYHRLPLS | 0.96 / 1.00 / 1.52 / 1.42 / 1.47 / 2.61 | 1.50 | 1/18 (1.40) |
| KSSQSVLYESRDKSSVA | WASTRES | QQYHRPPLS | 2.29 / 2.62 / 1.34 / 2.13 / 3.40 / ND | 2.35 | 1/18 (2.79) |
| KISTSVVYESRNKNSVA | WASTRES | QQYHRLPLS | 1.64 / 1.44 / 0.99 / 1.28 / 1.31 / 1.87 | 1.42 | 2/18 (3.79) |
| KSSQSVLYESREKNSVA | WASTRIE | QQYHRLPLS | 1.77 / ND / 2.08 / 1.25 / 1.54 / 1.57 | 1.64 | 1/18 (2.38) |
| KSSQSVLYESRNKNSVA | WASTRES | QQVHRTPLS | ND / ND / ND / ND / ND / ND | ND | 0/18 |
| KSSQSGLYESRNSNSVA | WASTRES | QQYHRLPLS | ND / ND / ND / ND / ND / ND | ND | 0/18 |
| KSSQSVLYESRNKNSVA | RASTRES | QQYHRLPLM | 1.81 / 1.68 / 1.73 / 2.52 / 1.74 / 1.42 | 1.82 | 0/18 |
| KSSQSVLYESTNVNSVA | WASTRPS | QQYHRLELS | ND / ND / ND / ND / ND / ND | ND | 0/18 |
| KSSQSVLYESRNKNSVA | WATTRES | QQYHRLPLS | 1.66 / 1.45 / 2.30 / 2.24 / ND / 1.17 | 1.77 | 0/18 |
| KSSQSVLYESRNDNSVA | WASTREA | QQYHRLPLS | ND / 1.39 / 1.36 / 0.80 / 0.94 / 2.20 | 1.34 | 0/18 |
| KCSPSVLYESRNKNNVA | EASTRES | QQYHRLPLS | -0.23 / -0.28 / -0.55 / -0.65 / -0.31 / -0.39 | -0.40 | 1/18 (1.99) |

Again, the first 5 entries without any signal:

| CDR-L1 | CDR-L2 | CDR-L3 | log10 Kd (nM) by replicate | mean log10 Kd (nM) | signal with controls |
|---|---|---|---|---|---|
| KSSDSDLYESRNKNSVA | WASTRES | QQYHRLHLS | ND / ND / ND / ND / ND / ND | ND | 0/18 |
| KSQNSSLYESNNKNSVA | WASTRES | QQYHILPLS | ND / ND / ND / ND / ND / ND | ND | 1/18 (1.53) |
| KSSQSVGYESRNKNSVA | GASTRES | QQYHRLHGS | ND / ND / ND / ND / ND / ND | ND | 0/18 |
| KSSQSCLYEYRNKNSVA | WASTRES | GQYHRLPLS | ND / ND / ND / ND / ND / ND | ND | 0/18 |
| KSGQSVLYESRNINSVA | WASTRES | QQYHRAPLS | ND / ND / ND / ND / ND / ND | ND | 0/18 |